The chains behind the UniProt entries cited, without tags or fusion partners.
UniProt O75874, whole entry R132H: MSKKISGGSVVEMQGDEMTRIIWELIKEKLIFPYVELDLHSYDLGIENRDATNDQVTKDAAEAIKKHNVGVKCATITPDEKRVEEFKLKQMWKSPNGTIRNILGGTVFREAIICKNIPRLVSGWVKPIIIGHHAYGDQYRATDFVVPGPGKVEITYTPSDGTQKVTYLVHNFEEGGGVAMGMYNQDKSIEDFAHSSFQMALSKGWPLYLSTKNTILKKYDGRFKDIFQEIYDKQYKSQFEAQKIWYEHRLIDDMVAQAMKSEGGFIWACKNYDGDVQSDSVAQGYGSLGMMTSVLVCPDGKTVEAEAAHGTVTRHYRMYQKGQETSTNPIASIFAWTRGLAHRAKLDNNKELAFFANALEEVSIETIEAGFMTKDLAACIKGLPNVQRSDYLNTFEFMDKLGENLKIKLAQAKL

According to US10442819B2, “Tricyclic compounds as inhibitors of mutant IDH enzymes” (Merck Sharp & Dohme Corp., priority 2014, dated 2019):

Molecular target: R132H mutant IDH1 enzyme (Homo sapiens (Human), UniProt O75874, R132H)
Experiment: R132H IDH1 Enzymatic Assay
Type: biochemical
Settings: R132H mutant IDH1 enzyme 1.5 nM final; luminescence readout; read-out: IC50

`COC1CC2COCC(C1)N2c1ccc2c(c1)N(C(=O)[C@H]1CC[C@H](OC(C)C)CC1)Cc1cccnc1N2` (stereo partly drawn) [Example 326, 8-(7-methoxy-3-oxa-9-azabicyclo[3.3.1]non-9-yl)-6-{[trans-4-(1-methylethoxy)cyclohexyl]car-bonyl}-6,11-dihydro-5H-pyrido[2,3-b][1,5]benzodiazepine] gave an IC50 of 14 nM.

`CC(C)(C)O[C@H]1CC[C@H](C(=O)N2Cc3cccnc3Nc3ccc(N4CC5COCC(C4)O5)cc32)CC1` [Example 327, 6-[(trans-4-tert-butoxycyclohexyl)carbonyl]-8-(3,9-dioxa-7-azabicyclo[3.3.1]non-7-yl)-6,11-dihydro-5H-pyrido[2,3-b][1,5]benzodiazepine] was tested, and the IC50 was 32 nM.

In the case of `O=C(C1CCN(CC(F)(F)F)CC1)N1Cc2cccnc2Nc2ccc(N3CC4(CCCOC4)C3)cc21` [Example 328, 8-(6-oxa-2-azaspiro[3.5]non-2-yl)-6-{[1-(2,2,2-trifluoroethyl)piperidin-4-yl]carbonyl}-6,11-dihydro-5H-pyrido[2,3-b][1,5]benzodiazepine], the IC50 is reported as 19 nM.

`CCO[C@H]1CC[C@H](C(=O)N2Cc3cccnc3Nc3ccc(N4C[C@H]5CC[C@@H]4CO5)cc32)CC1(F)F` [Example 332, 6-{[(1S,4S)-4-ethoxy-3,3-difluorocyclohexyl]carbonyl}-8-[(1R,4R)-2-oxa-5-azabicyclo[2.2.2]oct-5-yl]-6,11-dihydro-5H-pyrido[2,3-b][1,5]benzodiazepine] gave an IC50 of 3 nM.

`CCO[C@H]1CC[C@@H](C(=O)N2Cc3cccnc3Nc3ccc(N4C[C@H]5CC[C@@H]4CO5)cc32)CC1(F)F` [Example 333, 6-{[(1R,4S)-4-ethoxy-3,3-difluorocyclohexyl]carbonyl}-8-[(1R,4R)-2-oxa-5-azabicyclo[2.2.2]oct-5-yl]-6,11-dihydro-5H-pyrido[2,3-b][1,5]benzodiazepine] showed an IC50 of 6 nM.

Compound `CC(C)O[C@H]1CC[C@H](C(=O)N2Cc3cccnc3Nc3ccc(N4C5COCC4COC5)cc32)CC1` [Example 338, 8-(3,7-dioxa-9-azabicyclo[3.3.1]non-9-yl)-6-{[trans-4-(1-methylethoxy)cyclohexyl]car-bonyl}-6,11-dihydro-5H-pyrido[2,3-b][1,5]benzodiazepine] has an IC50 of 43 nM.

For `O=C(C1CCN(CC(F)(F)C(F)F)CC1)N1Cc2cccnc2Nc2ccc(N3CC4CCC3CO4)cc21` (centres unmarked) [Example 341, 8-(2-oxa-5-azabicyclo[2.2.2]oct-5-yl)-6-{[1-(2,2,3,3-tetrafluoropropyl)piperidin-4-yl]carbonyl}-6,11-dihydro-5H-pyrido[2,3-b][1,5]benzodiazepine], the IC50 was 27 nM.

In the case of `O=C(C1CCN(CC(F)(F)C(F)F)CC1)N1Cc2cccnc2Nc2ccc(N3C[C@@H]4C[C@H]3CO4)cc21` [Example 342, 8-[(1S,4S)-2-oxa-5-azabicyclo[2.2.1]hept-5-yl]-6-{[1-(2,2,3,3-tetrafluoropropyl)piperidin-4-yl]carbonyl}-6,11-dihydro-5H-pyrido[2,3-b][1,5]benzodiazepine], the IC50 is reported as 26 nM.

`CO[C@H]1C[C@H]2CC[C@@H](C1)N2c1ccc2c(c1)N(C(=O)C1CCCN(CC(F)(F)F)CC1)Cc1cccnc1N2` (stereo partly drawn) [Example 343, 8-[(3-endo)-3-methoxy-8-azabicyclo[3.2.1]oct-8-yl]-6-{[1-(2,2,2-trifluoroethyl)azepan-4-yl]carbonyl}-6,11-dihydro-5H-pyrido[2,3-b][1,5]benzodiazepine] showed an IC50 of 24 nM.

`O=C(N1Cc2cccnc2Nc2ccc(N3CC4CCC3CO4)cc21)C1(F)CCN(CC(F)(F)F)CC1` (centres unmarked) [Example 344, 6-{[4-fluoro-1-(2,2,2-trifluoroethyl)piperidin-4-yl]carbonyl}-8-(2-oxa-5-azabicyclo[2.2.2]oct-5-yl)-6,11-dihydro-5H-pyrido[2,3-b][1,5]benzodiazepine] was tested, and the IC50 was 9 nM.

Work on `O=C(N1Cc2cccnc2Nc2ccc(N3CC4CCC3CO4)cc21)C1(F)CCN(CC(F)(F)F)CC1` (centres unmarked) [Example 345, 6-{[4-fluoro-1-(2,2,2-trifluoroethyl)piperidin-4-yl]carbonyl}-8-(2-oxa-5-azabicyclo[2.2.2]oct-5-yl)-6,11-dihydro-5H-pyrido[2,3-b][1,5]benzodiazepine] yielded an IC50 of 13 nM.

`O=C(C1CCN(C2(C(F)(F)F)CCC2)CC1)N1Cc2cccnc2Nc2ccc(N3CC4CCC3CO4)cc21` (centres unmarked) [Example 346, 8-(2-oxa-5-azabicyclo[2.2.2]oct-5-yl)-6-({1-[1-(trifluoromethyl)cyclobutyl]piperidin-4-yl}carbonyl)-6,11-dihydro-5H-pyrido[2,3-b][1,5]benzodiazepine] gave an IC50 of 5 nM.

`C[C@@]12C[C@@H](CO1)N(c1ccc3c(c1)N(C(=O)C1CCN(CC(F)(F)F)CC1)Cc1cccnc1N3)C2` [Example 348, 8-[(1S,4S)-1-methyl-2-oxa-5-azabicyclo[2.2.1]hept-5-yl]-6-{[1-(2,2,2-trifluoroethyl)piperidin-4-yl]carbonyl}-6,11-dihydro-5H-pyrido[2,3-b][1,5]benzodiazepine] gave an IC50 of 12 nM.

Compound `CON=C1CCC(C(=O)N2Cc3cccnc3Nc3ccc(N4C[C@]5(C)C[C@H]4CO5)cc32)CC1` (stereo partly drawn) [Example 350, 4-({8-[(1S,4S)-1-methyl-2-oxa-5-azabicyclo[2.2.1]hept-5-yl]-5,11-dihydro-6H-pyrido[2,3-b][1,5]benzodiazepin-6-yl}carbonyl)cyclohexanone O-methyloxime] has an IC50 of 68 nM.

Compound `CC(C)O[C@H]1CC[C@H](C(=O)N2Cc3cccnc3Nc3ccc(C4CCOCC4)cc32)CC1` [Example 351, 6-{[Trans-4-(1-methylethoxy)cyclohexyl]carbonyl}-8-(tetrahydro-2H-pyran-4-yl)-6,11-dihydro-5H-pyrido[2,3-b][1,5]benzodiazepine] has an IC50 of 13 nM.

Compound `CO[C@H]1CC[C@H](C(=O)N2Cc3cccnc3Nc3ccc(-c4ccn(C5CCCCO5)n4)cc32)CC1` (stereo partly drawn) [Example 352, 6-[(trans-4-methoxycyclohexyl)carbonyl]-8-[1-(tetrahydro-2H-pyran-2-yl)-1H-pyrazol-3-yl]-6,11-dihydro-5H-pyrido[2,3-b][1,5]benzodiazepine] has an IC50 of 138 nM.

With `CO[C@H]1CC[C@H](C(=O)N2Cc3cccnc3Nc3ccc(-c4ccc(C#N)n4C)cc32)CC1` [Example 353, 5-{6-[(trans-4-methoxycyclohexyl)carbonyl]-6,11-dihydro-5H-pyrido[2,3-b][1,5]benzodiazepin-8-yl}-1-methyl-1H-pyrrole-2-carbonitrile] the IC50 was 67 nM.

Compound `CO[C@H]1CC[C@H](C(=O)N2Cc3cccnc3Nc3ccc(-c4c(C)noc4C)cc32)CC1` [Example 354, 8-(3,5-dimethylisoxazol-4-yl)-6-[(trans-4-methoxycyclohexyl)carbonyl]-6,11-dihydro-5H-pyrido[2,3-b][1,5]benzodiazepine] has an IC50 of 95 nM.

`CO[C@H]1CC[C@H](C(=O)N2Cc3cccnc3Nc3ccc(-c4cc(C(F)(F)F)nn4C)cc32)CC1` [Example 355, 6-[(trans-4-methoxycyclohexyl)carbonyl]-8-[1-methyl-3-(trifluoromethyl)-1H-pyrazol-5-yl]-6,11-dihydro-5H-pyrido[2,3-b][1,3]benzodiazepine] was tested, and the IC50 was 224 nM.

Compound `CO[C@H]1CC[C@H](C(=O)N2Cc3cccnc3Nc3ccc(-c4cnn(CC(C)C)c4)cc32)CC1` [Example 356, 6-[(trans-4-methoxycyclohexyl)carbonyl]-8-[1-(2-methylpropyl)-1H-pyrazol-4-yl]-6,11-dihydro-5H-pyrido[2,3-b][1,5]benzodiazepine] has an IC50 of 55 nM.

`CO[C@H]1CC[C@H](C(=O)N2Cc3cccnc3Nc3ccc(-c4cn[nH]c4)cc32)CC1` [Example 357, 6-[(trans-4-methoxycyclohexyl)carbonyl]-8-(1H-pyrazol-4-yl)-6,11-dihydro-5H-pyrido[2,3-b][1,5]benzodiazepine] gave an IC50 of 107 nM.

Compound `CO[C@H]1CC[C@H](C(=O)N2Cc3cccnc3Nc3ccc(C4=CCC(C#N)CC4)cc32)CC1` (stereo partly drawn) [Example 358, 4-{6-[(trans-4-methoxycyclohexyl)carbonyl]-6,11-dihydro-5H-pyrido[2,3-b][1,5]benzodiazepin-8-yl}cyclohex-3-ene-1-carbonitrile] has an IC50 of 44 nM.

`CO[C@H]1CC[C@@H](C(=O)N2Cc3cccnc3Nc3ccc(C4=CCC(C#N)CC4)cc32)CC1` (stereo partly drawn) [Example 359, 4-{6-[(cis-4-methoxycyclohexyl)carbonyl]-6,11-dihydro-5H-pyrido[2,3-b][1,5]benzodiazepin-8-yl}cyclohex-3-ene-1-carbonitrile] showed an IC50 of 40 nM.

`CO[C@H]1CC[C@H](C(=O)N2Cc3cccnc3Nc3ccc(-c4ccc(C#N)s4)cc32)CC1` [Example 360, 5-{6-[(trans-4-methoxycyclohexyl)carbonyl]-6,11-dihydro-5H-pyrido[2,3-b][1,5]benzodiazepin-8-yl}thiophene-2-carbonitrile] was tested, and the IC50 was 52 nM.

Compound `CO[C@H]1CC[C@H](C(=O)N2Cc3cccnc3Nc3ccc(-c4cnn5ncccc45)cc32)CC1` [Example 361, 6-[(trans-4-methoxycyclohexyl)carbonyl]-8-pyrazolo[1,5-b]pyridazin-3-yl-6,11-dihydro-5H-pyrido[2,3-b][1,5]benzodiazepine] has an IC50 of 97 nM.

`CO[C@H]1CC[C@H](C(=O)N2Cc3cccnc3Nc3ccc(C4(O)CCCO4)cc32)CC1` (stereo partly drawn) [Example 362, 2-{6-[(trans-4-methoxycyclohexyl)carbonyl]-6,11-dihydro-5H-pyrido[2,3-b][1,5]benzodiazepin-8-yl}tetrahydrofuran-2-ol] was tested, and the IC50 was 307 nM.

In the case of `CO[C@H]1CC[C@H](C(=O)N2Cc3cccnc3Nc3ccc(-c4cnn(C(C)(C)C)c4)cc32)CC1` [Example 363, 8-(1-tert-butyl-1H-pyrazol-4-yl)-6-[(trans-4-methoxycyclohexyl)carbonyl]-6,11-dihydro-5H-pyrido[2,3-b][1,5]benzodiazepine], the IC50 is reported as 187 nM.

Work on `CO[C@H]1CC[C@H](C(=O)N2Cc3cccnc3Nc3ccc(-c4sc(C)nc4C)cc32)CC1` [Example 364, 8-(2,4-dimethyl-1,3-thiazol-5-yl)-6-[(trans-4-methoxycyclohexyl)carbonyl]-6,11-dihydro-5H-pyrido[2,3-b][1,5]benzodiazepine] yielded an IC50 of 44 nM.

For `COCCn1cc(-c2ccc3c(c2)N(C(=O)[C@H]2CC[C@H](OC)CC2)Cc2cccnc2N3)cn1` [Example 365, 6-[(trans-4-methoxycyclohexyl)carbonyl]-8-[1-(2-methoxyethyl)-1H-pyrazol-4-yl]-6,11-dihydro-5H-pyrido[2,3-b][1,5]benzodiazepine], the IC50 was 127 nM.
